Several values for one entry are separate records, joined by “and”; a condition that tells them apart may be missing. Equal values may be shown once.
Molecular target: human 5-HT4(b) receptor (Homo sapiens, UniProt Q13639)
Test: Radioligand binding assay with [3H]GR113808
Conditions: [3H]GR113808 competition, membranes of HEK293 cells stably expressing human 5-HT4(b) receptor; hyphen-separated values taken as single determinations

Protein sequences, listed by entry. Tags and fused reporters are not part of them.
UniProt Q13639, whole entry: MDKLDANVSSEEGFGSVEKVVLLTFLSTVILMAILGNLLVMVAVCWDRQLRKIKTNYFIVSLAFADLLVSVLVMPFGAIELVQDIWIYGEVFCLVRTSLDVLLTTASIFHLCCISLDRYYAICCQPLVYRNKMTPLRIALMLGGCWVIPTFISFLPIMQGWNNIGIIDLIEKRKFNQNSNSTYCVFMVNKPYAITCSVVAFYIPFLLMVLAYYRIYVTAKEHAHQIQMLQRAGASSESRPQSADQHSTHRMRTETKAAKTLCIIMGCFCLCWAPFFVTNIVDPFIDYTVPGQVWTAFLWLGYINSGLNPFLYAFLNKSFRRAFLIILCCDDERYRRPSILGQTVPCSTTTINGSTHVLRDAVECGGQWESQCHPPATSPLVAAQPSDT

## COC(=O)c1ccccc1-c1ccc(CN2CCC(NC(=O)c3cc(Cl)c(N)cc3OC)CC2)cc1
  Binding affinity (pKd value): 6.96 and 7.26
